The list shows a part of the results, in another mix than the full data. Calls of active or inactive are those of the source.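 Rule for the calls: active = inhibition above a set limit, 3 SD over mean compound inhibition (cut at about 8.4% in these data); inactive = the rest.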
assay: inhibitors of the yeast RAM network, primary screen, dse1pr::URA3 reporter, 5-FOA selection (AID 868);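 note: 0% = DMSO-only wells with no growth and 100% = 10 µM 1-NA-PP1 full growth; inhibition rescues growth on 5-FOA so higher OD means more RAM inhibition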; conditions: S. cerevisiae dse1pr::URA3 reporter, 5-FOA growth OD615, 2 d; at 50 µM; hits give high values; analog-sensitive cbk1-as2 kinase mutant strain

| SMILES | inhibition |
| --- | --- |
| O=P(Nc1ccccn1)(c1ccc(Br)cc1)c1ccc(Br)cc1 | inactive: 0% |
| CC(=O)NC(SC(=S)N(C)C)C(Cl)(Cl)Cl (stereo not drawn) | inactive: -0.93% |
| C(Cc1nn[nH]n1)Cc1nn[nH]n1 | inactive: 1.6% |
| O=C(OC1CN2CCC1CC2)c1cccc(Cl)c1 (stereo not drawn) | inactive: -0.39% |
| O=P(Nc1nccs1)(c1ccccc1)c1ccccc1 | inactive: 0.89% |
| CC(C)C(=O)NC(Sc1ccccc1)C(Cl)(Cl)Cl (stereo not drawn) | inactive: 0.99% |
| c1nnnn1CCn1cnnn1 | inactive: -0.55% |
| CCOc1ccc(C2=NCC(CBr)S2)cc1 (stereo not drawn) | inactive: 2.6% |
| O=P1(Nc2nc3ccc(Cl)cc3s2)COc2ccccc2O1 (stereo not drawn) | inactive: 1.62% |
| CC(C)(C)C(=O)NC(Sc1ccccc1)C(Cl)(Cl)Cl (stereo not drawn) | inactive: 0.64% |
| CC(=O)Nc1ccc(Oc2c([N+](=O)[O-])cc([N+](=O)[O-])cc2[N+](=O)[O-])cc1 | inactive: 1.89% |
| O=C(NC1CCS(=O)(=O)C1)NP(=S)(Oc1ccccc1)Oc1ccccc1 (stereo not drawn) | inactive: 1.21% |
| CCNC(=S)/N=C(\N)N[N+](=O)[O-] | inactive: 0.25% |
| CCOC(=O)NC(Sc1ccccc1)C(Cl)(Cl)Cl (stereo not drawn) | inactive: -0.52% |
| c1ccc(-c2nn[nH]n2)c(-c2nn[nH]n2)c1 | inactive: 0.37% |
| Cc1ccc(OP(=O)(Nc2ccccn2)Oc2ccc(C)cc2)cc1 | inactive: -0.68% |
| CC(=O)NC(SC(=S)N(CC(C)C)CC(C)C)C(Cl)(Cl)Cl (stereo not drawn) | inactive: 0% |
| COC(=O)c1cc2c(s1)N=C(c1ccccc1)N(C)P2(=O)N1CCOCC1 (stereo not drawn) | inactive: -0.13% |
| CCC(=O)N1C2C3N(C(=O)CC)C1C1N(C(=O)CC)C(C(N1C(=O)CC)N3C(=O)CC)N2C(=O)CC | inactive: -0.79% |
| O=c1c2cc([N+](=O)[O-])ccc2[nH]c2c([N+](=O)[O-])cc([N+](=O)[O-])cc12 | inactive: 2.88% |
| Cc1cc(SC(NC(=O)c2ccc(F)cc2)C(Cl)(Cl)Cl)ncn1 (stereo not drawn) | inactive: 2.65% |
| CCOP(=O)(Nc1ccccc1)OCC | inactive: 1.04% |
| CCN(N=Nc1nonc1N)c1nonc1N | inactive: 0.39% |
| NC(=O)c1cc([N+](=O)[O-])cc([N+](=O)[O-])c1N | inactive: -0.62% |
| Cc1ccc(N/C(=N/P(=O)(N2CCOCC2)N2CCOCC2)N2CCOCC2)cc1 | inactive: 0.88% |
| COc1ccccc1OP(=O)(Nc1ccc(C)cn1)Oc1ccccc1OC | inactive: 0.12% |
| CN1CCCC(OC(=O)C(c2ccccc2)c2ccccc2)C1 (stereo not drawn) | inactive: -0.7% |
| Clc1ccc(Cl)c(NC2=NCC(CBr)S2)c1 (stereo not drawn) | inactive: 3.29% |
